From patent US7527916B2, “Photopolymerizable composition” (Agfa Graphics, N.V., priority 2003, dated 2009)

Assay: Solubility test in methyl ethyl ketone
Assay type: physicochemical
Settings: 1.5 g sensitiser in 100 g methyl ethyl ketone, stirred at room temperature (20° C.) for a maximum of 24 hours
Description: Solubility Test in Methyl Ethyl Ketone
1.5 g of the sensitiser is dissolved in 100g of methyl ethyl ketone and allowed to stir at room temperature (20° C.) for a maximum of 24 hours. If the sensitiser is completely dissolved in the methyl ethyl ketone, the sensitiser passes the solubility test and is considered as a preferred sensitiser according to the present invention.

Which “Solubility test MEK (15 g/kg)” value does the source give for “1,4-distyryl-(3,5-trimethoxy, 4-(2-pentyl)oxy)benzene [(E)]” here?
Its value is “OK (If the sensitiser is completely dissolved in the methyl ethyl ketone, the sensitiser passes the solubility test)”.
